These results are taken from article PMC11599453 (The Journal of Biological Chemistry, 2024).

Chains of the proteins cited; added tags and fusions are not shown. Residues count along the entry.
UniProt P54108, 21-245: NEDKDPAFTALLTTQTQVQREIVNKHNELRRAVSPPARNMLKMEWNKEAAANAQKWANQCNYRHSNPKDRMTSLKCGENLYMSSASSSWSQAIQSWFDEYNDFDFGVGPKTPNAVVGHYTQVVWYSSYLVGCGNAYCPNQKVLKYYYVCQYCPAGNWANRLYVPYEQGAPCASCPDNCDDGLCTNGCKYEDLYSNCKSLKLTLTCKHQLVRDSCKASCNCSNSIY
UniProt P47032, 20-299: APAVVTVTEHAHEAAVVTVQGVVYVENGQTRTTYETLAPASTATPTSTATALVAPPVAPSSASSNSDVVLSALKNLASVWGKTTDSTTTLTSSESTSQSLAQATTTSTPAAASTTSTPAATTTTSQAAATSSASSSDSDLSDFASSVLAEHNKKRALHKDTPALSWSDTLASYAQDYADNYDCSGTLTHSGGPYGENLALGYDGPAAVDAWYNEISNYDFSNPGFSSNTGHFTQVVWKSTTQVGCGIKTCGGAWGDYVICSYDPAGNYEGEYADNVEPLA
UniProt P16562, 22-243: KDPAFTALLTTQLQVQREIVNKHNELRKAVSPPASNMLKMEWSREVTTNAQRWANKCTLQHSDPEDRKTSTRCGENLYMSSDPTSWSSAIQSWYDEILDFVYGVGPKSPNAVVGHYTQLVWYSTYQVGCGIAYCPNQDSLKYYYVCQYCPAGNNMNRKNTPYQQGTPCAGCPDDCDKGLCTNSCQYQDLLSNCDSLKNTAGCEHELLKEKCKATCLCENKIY

Experiment [1] deals with CRISP3 expressed from a plasmid in yeast (human) (UniProt P54108).
The target in experiment [2] is Pry1, yeast CAP family protein, expressed from a plasmid in yeast (S. cerevisiae) (UniProt P47032).
Experiment [3] addresses HA-tagged CRISP2 secreted by yeast (UniProt P16562).
In experiment [4] the target is CRISP2 (cysteine-rich secretory protein 2), purified, fluorescently labeled (UniProt P16562). As to the kind of experiment: MST; 100 nM RED-tris-NTA-labeled CRISP2 (or L98G Y99P mutant) mixed with a serial dilution of unlabeled A1BG or Ig domain; 20 mM Tris pH 7.5, 30 mM NaCl, 0.05% Triton X-100; Monolith NT.115, 80% laser power; one site specific fit; triplicates.

A value given as a limit tells only on which side of the number the result lay.

For “Alpha-1-B glycoprotein (A1BG), full length, purified (from UniProt P04217 22-495) (natural protein)”, in experiment [1], the export of acetylated [14C]-cholesterol (export index) from hem1Δ say1Δ pry1Δ pry2Δ yeast coexpressing A1BG and CRISP3 was > 50%. The export of acetylated [14C]-cholesterol (export index) from hem1Δ say1Δ pry1Δ pry2Δ yeast coexpressing A1BG and Pry1 in experiment [2] is > 50%. In addition, the export of acetylated [14C]-cholesterol (export index) from hem1Δ say1Δ pry1Δ pry2Δ yeast coexpressing A1BG and CRISP2 in experiment [3] is > 50%. Further, the dissociation constant (Kd) in experiment [4] worked out at 13.7 nM.

The term Kd denotes the equilibrium constant for the complex coming apart. Read a low Kd as higher affinity.
